# Test results from ChEMBL document CHEMBL4376815, “The Development Process for Discovery and Clinical Advancement of Modern Antimalarials” (J Med Chem, 2019).
# Chains of the proteins cited; added tags and fusions are not shown.
# UniProt P08684, whole entry: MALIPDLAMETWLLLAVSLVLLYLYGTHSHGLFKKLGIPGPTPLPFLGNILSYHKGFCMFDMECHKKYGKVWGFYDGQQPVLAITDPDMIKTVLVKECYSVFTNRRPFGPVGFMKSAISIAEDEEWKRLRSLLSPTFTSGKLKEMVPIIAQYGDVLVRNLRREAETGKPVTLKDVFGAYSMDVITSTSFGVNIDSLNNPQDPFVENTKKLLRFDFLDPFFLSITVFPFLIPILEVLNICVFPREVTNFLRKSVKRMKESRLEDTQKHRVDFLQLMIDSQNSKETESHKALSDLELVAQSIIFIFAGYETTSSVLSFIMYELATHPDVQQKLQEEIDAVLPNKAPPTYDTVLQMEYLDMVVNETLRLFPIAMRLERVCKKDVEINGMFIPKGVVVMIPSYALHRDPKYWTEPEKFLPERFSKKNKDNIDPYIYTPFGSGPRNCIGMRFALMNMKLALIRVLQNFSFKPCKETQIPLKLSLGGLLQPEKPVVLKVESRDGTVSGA
# Biological target: Cytochrome P450 3A4 (Homo sapiens, UniProt P08684)
# Experiment: Inhibition of CYP3A4 (unknown origin)
# Type: ADME
structure (smiles),measurement,value
CC1(C)c2nc(-c3ccc(F)cc3)c(Nc3ccc(F)cc3)n2CCN1C(=O)CN [GANAPLACIDE],Ki,156 nM
